Experiment in all cases: FLIPR Blue membrane potential assay, activation
Holding throughout (format): cell-based

The chains behind the UniProt entries cited, without tags or fusion partners. Residues count along the entry.
UniProt O70212, 20-490: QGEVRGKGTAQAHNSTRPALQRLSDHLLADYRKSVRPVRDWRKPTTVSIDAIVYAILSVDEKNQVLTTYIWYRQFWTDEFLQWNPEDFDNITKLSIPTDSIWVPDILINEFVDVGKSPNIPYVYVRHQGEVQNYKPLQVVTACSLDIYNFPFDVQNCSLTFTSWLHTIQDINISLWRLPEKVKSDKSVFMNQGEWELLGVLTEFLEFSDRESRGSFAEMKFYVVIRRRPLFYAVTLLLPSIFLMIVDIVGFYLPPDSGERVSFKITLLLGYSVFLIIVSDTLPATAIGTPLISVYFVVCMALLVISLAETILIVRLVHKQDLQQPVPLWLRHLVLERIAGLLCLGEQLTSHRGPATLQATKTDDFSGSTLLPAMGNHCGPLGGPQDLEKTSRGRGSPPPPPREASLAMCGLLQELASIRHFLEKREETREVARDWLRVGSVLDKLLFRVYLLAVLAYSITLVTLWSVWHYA
UniProt P35563, 24-483: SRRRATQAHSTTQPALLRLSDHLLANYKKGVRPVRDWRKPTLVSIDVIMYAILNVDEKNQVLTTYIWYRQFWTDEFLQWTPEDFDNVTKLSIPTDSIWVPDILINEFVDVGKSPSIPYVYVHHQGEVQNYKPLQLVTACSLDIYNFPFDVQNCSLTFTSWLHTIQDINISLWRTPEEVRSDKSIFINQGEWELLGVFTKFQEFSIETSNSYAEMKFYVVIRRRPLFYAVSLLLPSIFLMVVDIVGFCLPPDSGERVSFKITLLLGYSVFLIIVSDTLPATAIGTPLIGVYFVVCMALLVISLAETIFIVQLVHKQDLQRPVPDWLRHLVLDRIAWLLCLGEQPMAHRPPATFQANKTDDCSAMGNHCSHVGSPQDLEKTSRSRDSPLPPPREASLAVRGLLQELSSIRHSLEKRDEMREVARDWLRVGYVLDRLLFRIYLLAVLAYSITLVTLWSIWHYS
UniProt P35563, 24-483 I207V: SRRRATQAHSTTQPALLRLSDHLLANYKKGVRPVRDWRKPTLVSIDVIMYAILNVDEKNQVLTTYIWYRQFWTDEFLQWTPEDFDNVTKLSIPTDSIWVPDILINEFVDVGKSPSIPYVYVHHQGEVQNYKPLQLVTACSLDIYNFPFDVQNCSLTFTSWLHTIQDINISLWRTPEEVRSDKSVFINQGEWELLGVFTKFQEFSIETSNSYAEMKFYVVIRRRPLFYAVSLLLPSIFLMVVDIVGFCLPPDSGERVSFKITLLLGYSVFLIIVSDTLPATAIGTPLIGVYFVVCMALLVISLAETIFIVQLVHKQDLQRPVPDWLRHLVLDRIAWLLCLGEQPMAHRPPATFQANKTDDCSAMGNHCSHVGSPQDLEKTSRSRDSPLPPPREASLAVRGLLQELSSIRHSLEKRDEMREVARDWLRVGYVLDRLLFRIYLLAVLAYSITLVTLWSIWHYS

The target of one assay is gp5-HT3AR (Cavia porcellus, UniProt O70212).
Assay [1] addresses r5-HT3AR (Rattus norvegicus, UniProt P35563).
Assay [2] deals with r5-HT3AR (Rattus norvegicus, UniProt P35563, I207V).

pEC50: −log10 of the molar value.

Regarding `NCCc1c[nH]c2ccc(O)cc12` [serotonin], the values for the pEC50 at gp5-HT3AR, at r5-HT3AR [1] and on r5-HT3AR [2] were 6.59, 5.78 and 6.11, respectively.

These data come from paper doi:10.1101/2024.02.23.581731v1 (biorxiv, 2024).
